The assay deals with serum antibodies. The assay is described as follows: Immunization of rabbits with peptides 3 and 7, anti-peptide ELISA. Type of assay: in vivo, rabbit. The settings on record: two rabbits, mixture of peptides 3 and 7 (375 μg each), QuilA/DEAE Dextran/Montanide ISA 50V.

“H-KLLIHWASTRESGVPDR-OH [Peptide 3, Light CDR2 of human anti-p53 antibody with N-terminus specificity]”: the “Polyclonal sera against peptide from immunised rabbits” value is on record as “successfully isolated”.

Consider “H-LLIYLGSTRASGVPDR-OH [Peptide 7, Light CDR2 of human anti-p53 antibody with central domain specificity]”, for which the “Polyclonal sera against peptide from immunised rabbits” value is on record as “successfully isolated”.

The values are drawn from patent US20080241177A1 (priority 2003, published 2008).
